Results published in PubChem BioAssay AID602440 (Sanford-Burnham Center for Chemical Genomics, 2012).
Only a part is listed here, and it is no random draw. The source made the active and inactive calls. No stated cut-off is given here; in the data, active means inhibition mostly above about 40% (no sharp cut-off); inactive means mostly below about 27%.

Amino acid sequences for entries named in this document (tags omitted).
UniProt Q96LD8, whole entry: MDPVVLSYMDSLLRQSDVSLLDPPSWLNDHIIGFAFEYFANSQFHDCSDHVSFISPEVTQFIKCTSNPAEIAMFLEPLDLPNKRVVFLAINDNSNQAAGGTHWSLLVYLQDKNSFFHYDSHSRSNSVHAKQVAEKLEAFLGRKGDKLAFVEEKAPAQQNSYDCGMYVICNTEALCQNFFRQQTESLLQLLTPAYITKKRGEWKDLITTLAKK

target: Sentrin-specific protease 8 (Homo sapiens) (UniProt Q96LD8); assay: human SENP8 protease inhibitors, primary screen, biochemical, fluorescence, Nedd8 protein substrate, uHTS (AID 602440); conditions: recombinant SENP8, Nedd8 substrate fluorescence; at 20 µM; active compounds read high

| SMILES | inhibition |
| --- | --- |
| COc1ccccc1OP(C)(=O)Nc1cccc(Br)c1 (stereo unspecified) | inactive: 18.1% |
